ChEMBL document CHEMBL1126372, “Synthesis of L-chiro-inositol 1,4,6-trisphosphorothioate, a potent and selective inhibitor of myo-inositol 1,4,5-trisphosphate 5-phosphatase” (Bioorg Med Chem Lett, 1992)

Species on record: Homo sapiens

- Km: 19 µM
SMILES: O=P(O)(O)O[C@@H]1[C@H](O)[C@H](O)[C@@H](OP(=O)(O)O)[C@H](OP(=O)(O)O)[C@H]1O [INS(1,4,5)P3]
